What was measured:
[1] = test system: leukotriene pathway in human whole blood; experiment: Human whole blood assay (LTB4 levels after A23187 stimulation); details: read-out: Human Whole Blood LTB4 IC50 1:1, human whole blood diluted 1:1 in RPMI, Table 6 (additional runs)
human FLAP = human FLAP (Homo sapiens (Human), UniProt P20292); experiment: FLAP binding assay (HTRF format); details: read-out: FLAP Binding wild type HTRF Ki, human FLAP wild type membranes, Table 6 (additional runs)

By UniProt entry, the sequences of proteins in these tests, tags left out.
UniProt P20292, whole entry: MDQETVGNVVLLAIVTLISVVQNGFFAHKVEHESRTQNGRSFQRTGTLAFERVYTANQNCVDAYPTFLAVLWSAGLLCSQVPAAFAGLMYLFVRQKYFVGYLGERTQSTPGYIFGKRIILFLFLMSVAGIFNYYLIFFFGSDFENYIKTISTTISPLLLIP

IC50 [1]: 91.5 nM
Ki (human FLAP): 26.9 nM
Structure (SMILES): Nc1ccnc(Oc2c(C3CCCCC3)ccc(-c3cnc(N)nc3)c2F)n1

— US9732093B2, “FLAP modulators” (JANSSEN PHARMACEUTICA NV, priority 2013, dated 2017)
